Assay results taken from patent US12319954B2, “Morphinan compounds” (Concert Pharmaceuticals, Inc., priority 2007, dated 2025).

Chains of the proteins cited; added tags and fusions are not shown.
UniProt P10635, whole entry: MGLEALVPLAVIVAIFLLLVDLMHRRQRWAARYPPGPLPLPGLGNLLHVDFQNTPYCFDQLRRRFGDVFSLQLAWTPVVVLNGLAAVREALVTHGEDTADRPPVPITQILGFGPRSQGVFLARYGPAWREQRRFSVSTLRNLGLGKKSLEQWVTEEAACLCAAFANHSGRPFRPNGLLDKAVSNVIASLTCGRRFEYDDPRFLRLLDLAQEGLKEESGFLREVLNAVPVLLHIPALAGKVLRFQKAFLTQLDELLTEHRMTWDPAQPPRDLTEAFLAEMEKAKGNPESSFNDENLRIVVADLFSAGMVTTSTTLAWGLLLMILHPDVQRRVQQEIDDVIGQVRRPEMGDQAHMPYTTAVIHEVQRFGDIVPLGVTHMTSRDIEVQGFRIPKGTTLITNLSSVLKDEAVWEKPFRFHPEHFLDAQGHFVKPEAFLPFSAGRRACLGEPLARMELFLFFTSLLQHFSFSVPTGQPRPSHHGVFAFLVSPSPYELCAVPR

What was measured:
[1] = Metabolic stability in human liver microsomes; details: low (0.1 μM) concentration of compound; data not shown
Method: The objectives of this study were to determine the metabolic stability of the test compounds in pooled human and […] liver microsomal incubations. Samples of the test compounds, exposed to pooled human or […] liver microsomes, were analyzed using HPLC-MS (or MS/MS) detection. For determining metabolic stability, multiple reaction monitoring (MRM) was used to measure the disappearance of the test compounds.
Experimental Procedures: Human liver and Cynomolgus monkey liver microsomes were obtained from XenoTech, LLC (Lenexa, KS). The incubation mixtures were prepared as follows:
Incubation of Test Compounds with Liver Microsomes: The reaction mixture, minus cofactors, was prepared. An aliquot of the reaction mixture (without cofactors) was incubated in a shaking water bath at 37° C. for 3 minutes. Another aliquot of the reaction mixture was prepared as the negative control. The test compound was added into both the reaction mixture and the negative control at a final concentration of 0.10, 0.25, or 1 μM. An aliquot of the reaction mixture was prepared as a blank control, by the addition of plain organic solvent (no test compound is added). The reaction was initiated by the addition of cofactors (not added to the negative controls), and then incubated in a shaking water bath at 37° C. […]
All samples were analyzed using LC-MS (or MS/MS). […]

[2] = molecular target: T1, Human CYP2D6+P450 Reductase SUPERSOMES (Homo sapiens, UniProt P10635); assay: Metabolic stability in CYP2D6 SUPERSOMES; format: in vitro ADME; details: 0.1 μM compound
T1 construct: purchased GenTest (Woburn, MA, USA); host or cells: insect cells (inferred from the negative control, insect cell microsomes)
Method: Human CYP2D6+P450 Reductase SUPERSOMES™ were purchased from GenTest (Woburn, MA, USA). A 1.0 mL reaction mixture containing 25 pmole of SUPERSOMES™, 2.0 mM NADPH, 3.0 mM MgCl, and 0.1 μM of various compounds of Formula I (Compounds 100, 101, and 108) in 100 mM potassium phosphate buffer (pH 7.4) was incubated at 37° C. in triplicate. […] Aliquots (50 μL) were removed from each sample and placed in wells of a multi-well plate at 0, 2, 5, 7, 12, 20, and 30 minutes and to each was added 50 μL of ice cold acetonitrile with 3 μM haloperidol as an internal standard to stop the reaction.
Plates containing the removed aliquots were then placed in −20° C. freezer for 15 minutes to cool. After cooling, 100 μL of deionized water was added to all wells in the plate. Plates were then spun in the centrifuge for 10 minutes at 3000 rpm. A portion of the supernatant (100 μL) was then removed, placed in a new plate and analyzed using Mass Spectrometry.

## (+)-3-d3-methoxy-17-methyl-(9α, 13α, 14α)-morphinan [Compound 100]
[1]
  relative stability as compared to dextromethorphan in human liver microsomes: remained the same
[2]; 30 minutes
  remained intact after a 30 minute incubation with 2D6 Supersomes: ~40%
[2]; FIG. 3
  stability to metabolism in 2D6 Supersomes, comparative: much more stable to metabolism than dextromethorphan or Compound 108
